Molecular target: P2Y purinoceptor 1 (Homo sapiens, UniProt P47900)
Assay: Agonist activity at P2Y1 receptor expressed in 1321N1 cells assessed as cytosolic calcium level
Format: functional, cell-based

By UniProt entry, the sequences of proteins in these tests, tags left out. Where a name states a change or a piece, a line headed by the entry shows the natural chain unless it says otherwise.
UniProt P47900: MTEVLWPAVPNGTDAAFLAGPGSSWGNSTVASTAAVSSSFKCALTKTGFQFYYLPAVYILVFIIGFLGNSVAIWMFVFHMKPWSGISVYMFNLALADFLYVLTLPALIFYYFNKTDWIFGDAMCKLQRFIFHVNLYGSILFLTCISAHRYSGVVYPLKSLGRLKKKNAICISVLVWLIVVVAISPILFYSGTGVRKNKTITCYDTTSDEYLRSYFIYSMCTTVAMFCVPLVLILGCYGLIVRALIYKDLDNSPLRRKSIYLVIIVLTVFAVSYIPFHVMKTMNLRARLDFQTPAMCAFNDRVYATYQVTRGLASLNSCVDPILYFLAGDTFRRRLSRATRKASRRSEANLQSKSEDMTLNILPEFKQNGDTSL

- EC50: 12.3 nM
Compound: CSc1nc(N)c2ncn([C@@H]3O[C@H](COP(=O)(O)OP(=O)(O)O)[C@@H](O)[C@H]3O)c2n1
